# Tested on: cultivar Merlot vines
# Assay: Undesired effects (necrosis or leaf decolouring) on vines in the Plasmopara viticola greenhouse test
# Conditions: in vivo
row,Substance,Undesired Effects
1,silicic acid,0
2,FeNH4SO4,0
